## AlphaSeq binding of Ab-14 light chain variants to a spike HR2 peptide

The target is the same throughout: PDVDLGDISGINAS, from the HR2 region of SARS-CoV-2 spike.

Parent: Ab-14, a human scFv built as VH, the linker GGGGSGGGGSGGGGS, VL. Only the CDRs of the light chain vary.
VH: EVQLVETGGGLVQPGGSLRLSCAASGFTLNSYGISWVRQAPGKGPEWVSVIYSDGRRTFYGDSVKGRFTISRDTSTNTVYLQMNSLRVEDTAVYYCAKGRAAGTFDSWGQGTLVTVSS
VL: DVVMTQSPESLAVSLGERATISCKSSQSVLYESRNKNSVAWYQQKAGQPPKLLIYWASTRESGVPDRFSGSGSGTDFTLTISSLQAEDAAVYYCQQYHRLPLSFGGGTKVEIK

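The starting antibody came from a phage panning campaign against this peptide. These sequences belong to a second round, designed from the earlier measurements on random variants of the parent. Group labels follow the data file (Ctrl: baseline library sampled from a position-specific scoring matrix, with some repeated check sequences; Rand: our label for a block that the file lists under HC and that is probably the random mutants of the ten best first-round binders; En: ensemble of fine-tuned language models; GP: Gaussian process model; HC: hill climbing; Gen: genetic algorithm; Gibbs: Gibbs sampling; a sequence that several methods proposed may carry one label only). Affinity was read by AlphaSeq, a pooled yeast mating assay with surface-displayed partners. Pairs that bind mate more often; barcode pairs of the diploids are counted by sequencing. Read counts were normalised to the haploid input and turned into Kd by a linear fit to BCL2-family pairs of known affinity, for each replicate. There are six technical replicates.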

Variants are written as CDR1, CDR2 and CDR3 of the light chain (limits as in the source). Parent: KSSQSVLYESRNKNSVA, WASTRES, QQYHRLPLS.
Variants here have at most six changes.
Each Kd is an estimate from the mating assay, the geometric mean of the replicates in which the pair was seen; lower is stronger.
Where no diploid with the target was found in any replicate, the entry reads "not detected": below detection, most likely a poor binder, though not proof of it.

CDR-L1	CDR-L2	CDR-L3	group	Kd (apparent)	detected	signal with controls
KLMQSVQYESRNKNSVA	NASTRES	QQYHRLPLS	GP_Gen	750 pM	6 of 6	2 of 18
KFSQSVLYESRNGNSVA	NASTRES	QQYHRLPLS	GP_Gen	1.0 nM	6 of 6	0 of 18
KLSQSDLYESRNSNSVA	DASTRES	QQYHRLPLS	GP_Gen	1.5 nM	6 of 6	1 of 18
KLSQSELYESRLKNSVA	NASTRES	QQYHRLPLS	GP_Gen	1.3 nM	6 of 6	2 of 18
KESWSVLFESRNKNSVA	DASTRSS	QQYHRLPLS	GP_HC	2.1 nM	6 of 6	1 of 18
KQSQSVLDESRNKNSVA	DASTRES	QQYHRLPLS	Rand	1.1 nM	6 of 6	2 of 18
KFSQSFLAESRNKNSVA	RASTRES	QQYHRLPLS	Ctrl	840 pM	6 of 6	0 of 18
KLSQSQLYESRNKNSVA	NASTREE	QQYHRLPLS	GP_Gen	440 pM	6 of 6	0 of 18
KSSQDVLYESRNRNSVA	WDSTRES	QQYHRLPLS	Ctrl	not detected	0 of 6	0 of 18
KLSMSFLYESRNKNSVA	GASTRES	QQYHRLTLS	GP_HC	290 pM	6 of 6	0 of 18
HLSPSVPYESRNKNSVA	NASTRES	QQYHRLPLS	GP_HC	480 pM	6 of 6	0 of 18
KFSQSVLYESRMKNSVA	NASTRES	QQYHRLPLS	GP_Gen	1.2 nM	6 of 6	1 of 18
KSSDSVLYESRNKNSVA	WASTRES	QQYHRLPLS	Ctrl	130 nM	4 of 6	0 of 18
KISQSWGYESRNKNSVA	GASTRES	QQYHRLPLS	GP_HC	4.6 nM	6 of 6	1 of 18
KFSQSELYESRTKNGVA	NASTRES	QQYHRLPLS	GP_HC	780 pM	6 of 6	1 of 18
KVSPSMLYEQRNKNSVA	SASTREN	QQYHRLPLS	GP_Gibbs	880 pM	6 of 6	1 of 18
KSSDSKLYESLNKNSVA	QASTRES	QQYHRLPLY	Ctrl	3.0 nM	30 of 30	6 of 90
KMSQSVLYESRNNNSVA	DASTRES	QQYYRLPLS	Ctrl	3.9 nM	6 of 6	0 of 18
DSSQSDLYESRNKNSVA	GASTRES	QQYHRLPLS	GP_HC	400 pM	6 of 6	3 of 18
KSSQSVLYESRNHNSVA	AASTVES	QQYHRLPLS	Ctrl	7.3 nM	6 of 6	1 of 18
KLRQSTLYESRNKNSVA	YASTRLS	QQYHRLPLS	GP_HC	91 nM	6 of 6	2 of 18
KFSQSVLYESRNKNSVA	WADTRES	QTYHRLPLS	Ctrl	86 nM	2 of 6	0 of 18
SLMQSVLYESRNKNSVA	HASLREM	QQYHRLPLS	GP_HC	4.4 nM	6 of 6	4 of 18
KSLQSVLYESRNKNSVA	HASTRED	QQYHRLPLS	En_HC	1.7 nM	6 of 6	1 of 18
KSTQSNLYESRNKNSVA	QASTRES	QQYHRLPLS	Ctrl	not detected	0 of 6	0 of 18
KLSLSVLGESRNKNSVA	NASTRES	QQYHRLPLS	GP_HC	1.1 nM	6 of 6	1 of 18
HLSWSVLYESRNKNSVA	NASTRES	GQYHRLPLS	GP_HC	4.7 nM	6 of 6	1 of 18
KWSQSFLYESRNVNSVA	GASTRDS	QQYHRLPLS	GP_HC	1.1 nM	6 of 6	0 of 18
KSSPSVLYESRNKNHVA	WASTRES	QQYHRLPLS	Ctrl	350 nM	1 of 6	0 of 18
KYSQSVYYESNNKNSVA	WASTRES	QQYHRLPLS	Ctrl	110 nM	2 of 6	1 of 18
KLSMSELYESRNKNSVA	EASQRES	QQYHRLPLS	GP_Gen	840 pM	6 of 6	3 of 18
KSEQSVLYESHNKNSVA	WASTRES	QQYHVLPAS	Ctrl	110 nM	5 of 6	2 of 18
KLPQSWLYESRNKNSVA	NASTREQ	QQYHRLPLS	GP_Gen	350 pM	6 of 6	1 of 18
KLQQLVLYESRNKNSVA	DASTRFS	QAYHRLPLS	GP_Gibbs	52 nM	6 of 6	2 of 18
KFSQSWLYESRNKNSVA	RASMRES	QQYHRLPFS	Ctrl	6.7 nM	6 of 6	1 of 18
KVEQSFLYESRNKNSVA	NASQRES	QQYHRLPLS	GP_Gen	290 pM	6 of 6	0 of 18
KSSQSVLYESRNKQSVA	WASTRES	QQYHRLPLS	Ctrl	4.8 nM	6 of 6	0 of 18
KSPQSHLYESRNKNSVA	HASTRED	QSYHRLPLS	GP_HC	3.3 nM	6 of 6	0 of 18
KLSQSVLYESRTKNSVA	EASTRES	QQYHRLPLS	GP_HC	380 pM	6 of 6	0 of 18
KLSASQLYWSRNKNSVA	NASTRET	QQYHRLPLS	GP_Gibbs	1.2 nM	6 of 6	1 of 18
KSSQSVLYESRNKNSVA	HASTREV	QQYHRLPLS	Ctrl	5.5 nM	6 of 6	1 of 18
KMSQSVLFESRNKNSVA	DASTRES	QQYHRLPLS	GP_HC	740 pM	6 of 6	1 of 18
KQSQSDLVESRNKNSVA	DASTRES	QQYHRLPLS	GP_HC	330 pM	6 of 6	0 of 18
KSSQDVLYESQNKNSVA	DASTRES	QQHHRLPLS	Ctrl	12 nM	6 of 6	0 of 18
KLSMSVLYESANKNPVA	WASTRES	QNHHRLPLS	Ctrl	8.4 µM	1 of 6	1 of 18
HLSWWVLYESRNKNSVA	NASTRES	QQYHRLPLS	GP_HC	1.5 nM	6 of 6	0 of 18
KLEQSVLYESRNKNSVA	HASTRED	QQYHRLPLS	GP_HC	1.1 nM	6 of 6	1 of 18
KESFSVLYESPYKNSVA	GASTRES	QQYHRLPLS	Ctrl	1.4 nM	6 of 6	3 of 18
KESQSVLQEWRNKNSVA	DASTRES	QQYHRLPLS	GP_HC	620 pM	6 of 6	1 of 18
KMSQSVWYEERNKNSVA	NASKRES	QQYHRLPLS	GP_Gibbs	2.5 nM	6 of 6	1 of 18
KFSQSVPYDSRNKNSVA	WASTRES	QQYHRLPLS	Ctrl	11 nM	6 of 6	0 of 18
KSSQNVLGDSRNKNSVA	WASTRFS	QQYHRLPLS	Ctrl	59 nM	6 of 6	1 of 18
KISISYLYESRNENSVA	EASTREQ	QQYHRLPLS	GP_HC	1.4 nM	6 of 6	0 of 18
KLSQSFEYESRNKNSVA	NASTRES	QQYHRLPLS	GP_Gen	3.1 nM	6 of 6	1 of 18
KLPQSDLYESRNKNSVA	QASQRES	QQYHRLPLS	GP_Gen	850 pM	6 of 6	2 of 18
HLSDSVLYESRNKNSVA	NASTRCS	QQYHRLPLN	GP_HC	4.6 nM	6 of 6	2 of 18
QSSQSFLYESRNKNSVA	GASTRES	QQYHRLTLS	Rand	310 pM	6 of 6	0 of 18
KLSQSVLYESRNSNSVA	NASTRES	QQYHRLPLM	GP_Gen	1.0 nM	6 of 6	0 of 18
KFSQWELYESRTKNSVA	NASTRES	QQYHRLPLS	GP_HC	1.8 nM	6 of 6	1 of 18
KVSQSVLYESGNKNSVA	NASTRES	QQYHRLPLS	GP_HC	680 pM	6 of 6	1 of 18
KLSISVLGESRNKNSVA	WASTRES	QQYHRLPLS	Ctrl	4.7 nM	6 of 6	0 of 18
KSSQSVLYESREKNPVA	WASHRES	QQYHDLPLS	Ctrl	not detected	0 of 6	1 of 18
KVSQSVLYESRQKNSVA	NASTRES	QQMHRLPLS	GP_HC	not detected	0 of 6	0 of 18
KFSQSVLYESRNKNNVA	DASTRES	QQYHRLPLS	GP_Gen	460 pM	6 of 6	0 of 18

5 of these entries, quoted again:

CDR-L1	CDR-L2	CDR-L3	group	Kd (apparent)	detected	signal with controls
KQSQSVLDESRNKNSVA	DASTRES	QQYHRLPLS	Rand	1.1 nM	6 of 6	2 of 18
KFSQSVLYESRNGNSVA	NASTRES	QQYHRLPLS	GP_Gen	1.0 nM	6 of 6	0 of 18
KFSQSVLYESRMKNSVA	NASTRES	QQYHRLPLS	GP_Gen	1.2 nM	6 of 6	1 of 18
QSSQSFLYESRNKNSVA	GASTRES	QQYHRLTLS	Rand	310 pM	6 of 6	0 of 18
KSSQSVLYESREKNPVA	WASHRES	QQYHDLPLS	Ctrl	not detected	0 of 6	1 of 18

Nonspecific signal, from three strains lacking the peptide, appeared in 4% of pairings of all light chain designs, centred on 430 nM (5% of these signals below 38 nM); values are not corrected for it. Also given: how often the same scFv was detected with the empty control strains.
The parent sequence was in this pool as ten entries: three were never detected, three once, and four in most replicates, with averages from 2.2 nM to 240 nM.
Values of this round are not directly comparable with the first-round values of the same sequences.
Where one sequence has several entries in the source, the replicates are pooled.
In the paper, a design with two or fewer of six values counts as a poor binder.

Reference: Li et al. 2023, doi:10.1038/s41467-023-39022-2. File: FLAb, binding data.